# What was measured:
# Chains of the proteins cited; added tags and fusions are not shown.
# mu opioid receptor (C57 E11 KO spinal cord) (Mus musculus), P42866, UniProt P42866, whole entry: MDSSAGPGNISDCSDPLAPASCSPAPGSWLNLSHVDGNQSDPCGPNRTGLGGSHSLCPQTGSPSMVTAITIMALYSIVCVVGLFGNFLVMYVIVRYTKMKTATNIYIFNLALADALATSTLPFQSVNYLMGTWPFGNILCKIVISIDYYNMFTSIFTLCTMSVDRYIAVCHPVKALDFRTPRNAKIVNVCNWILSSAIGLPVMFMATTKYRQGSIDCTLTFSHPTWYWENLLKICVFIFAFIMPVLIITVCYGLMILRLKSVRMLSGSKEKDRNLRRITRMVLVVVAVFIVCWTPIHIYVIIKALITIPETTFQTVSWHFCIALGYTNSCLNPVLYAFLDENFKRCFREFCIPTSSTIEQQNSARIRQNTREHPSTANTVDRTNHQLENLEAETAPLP
# Assay in all cases: radioligand
# Conditions in all cases: modification not given
# [1] = molecular target: mu opioid receptor (C57 E11 KO spinal cord) (Mus musculus), P42866
# [2] = molecular target: mu opioid receptor (C57 WT brain) (Mus musculus), P42866
# [3] = molecular target: mu opioid receptor (129 WT spinal cord) (Mus musculus), P42866
# [4] = molecular target: mu opioid receptor (C57 WT spinal cord) (Mus musculus), P42866
binder,measurement,setting,value
YAGFG [3H-DAMGO],Kd,[1],0.7 nM
same,Kd,[2],0.5 nM
same,Kd,[3],0.3 nM
same,Kd,[4],0.6 nM
